# Assay results taken from ChEMBL document CHEMBL5344417.
# Active and inactive are the calls of the source. No cut-off for these calls is given here.
# Tests used:
# [1] = molecular target: T1, Retinoic acid receptor RXR-alpha (Homo sapiens) (UniProt P19793); assay: Agonist activity at GAL4 DBD fused recombinant RXR alpha LBD (unknown origin) expressed in HEK292T cells cotransfected with pG5 luciferase plasmid assessed as receptor transactivation at 1 to 20 uM incubated for 12 hrs by dual luciferase reporter assay; format: cell-based; conditions: HEK293T, dose 1-20 µM
# T1 sequence (whole entry): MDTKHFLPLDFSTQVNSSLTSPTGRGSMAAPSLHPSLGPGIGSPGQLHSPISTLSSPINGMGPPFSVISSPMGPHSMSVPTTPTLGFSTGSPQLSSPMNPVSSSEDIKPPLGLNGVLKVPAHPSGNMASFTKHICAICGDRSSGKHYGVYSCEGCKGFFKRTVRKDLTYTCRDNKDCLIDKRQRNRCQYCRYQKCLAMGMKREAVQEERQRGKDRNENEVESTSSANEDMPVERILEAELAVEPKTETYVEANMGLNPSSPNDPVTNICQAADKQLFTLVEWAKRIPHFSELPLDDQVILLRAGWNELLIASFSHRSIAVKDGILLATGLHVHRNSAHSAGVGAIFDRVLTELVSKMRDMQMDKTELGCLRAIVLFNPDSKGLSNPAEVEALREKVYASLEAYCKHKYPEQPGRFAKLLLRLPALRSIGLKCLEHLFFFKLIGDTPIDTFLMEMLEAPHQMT
# [2] = system: HepG2; assay: Inhibition of lipid accumulation in oleic acid treated human HepG2 cells at 10 uM incubated for 24 hrs by Oil Red O staining based analysis; format: functional, cell-based
SMILES,Activity [1],inhibition [2]
C/C=C/C=C/C(O)=C1/C(=O)[C@@]2(C)[C@H]3\C(=C(O)/C=C/C=C/C)C(=O)[C@@]4(C)[C@@H]1[C@]1(C)O[C@@]4(O)[C@@]3(C)O[C@@]12O,inactive,–
Oc1ccc(/C=C/c2cc(O)cc(O)c2)cc1,–,Active
C/C=C/C=C/C(O)=C1/C(=O)[C@@]2(C)[C@H]3/C(=C(/O)CC/C=C/C)C(=O)[C@@]4(C)[C@@H]1[C@]1(C)O[C@@]4(O)[C@@]3(C)O[C@@]12O,inactive,–
